The text below walks through data of ChEMBL document CHEMBL4706631, “Potent and Selective Mitogen-Activated Protein Kinase Kinase 1/2 (MEK1/2) Heterobifunctional Small-molecule Degraders” (J Med Chem, 2020).

For this assay, the system named is SU-DHL-1. The assay can be described thus: Antiproliferative activity against human SU-DHL-1 cells incubated for 3 days by WST8 assay. Type of assay: functional. The note with it: SU-DHL-1, 72 h, time 3 day.

With `O=C(NOC[C@H](O)CO)c1ccc(F)c(F)c1Nc1ccc(I)cc1F` [MIRDAMETINIB], the GI50 came out at 350 nM.

What is called GI50 is the concentration that inhibits growth by half.
